The target in assay [1] is T1, PARP15 (Homo sapiens, UniProt Q460N3).
T1 sequence (Q460N3 1-678): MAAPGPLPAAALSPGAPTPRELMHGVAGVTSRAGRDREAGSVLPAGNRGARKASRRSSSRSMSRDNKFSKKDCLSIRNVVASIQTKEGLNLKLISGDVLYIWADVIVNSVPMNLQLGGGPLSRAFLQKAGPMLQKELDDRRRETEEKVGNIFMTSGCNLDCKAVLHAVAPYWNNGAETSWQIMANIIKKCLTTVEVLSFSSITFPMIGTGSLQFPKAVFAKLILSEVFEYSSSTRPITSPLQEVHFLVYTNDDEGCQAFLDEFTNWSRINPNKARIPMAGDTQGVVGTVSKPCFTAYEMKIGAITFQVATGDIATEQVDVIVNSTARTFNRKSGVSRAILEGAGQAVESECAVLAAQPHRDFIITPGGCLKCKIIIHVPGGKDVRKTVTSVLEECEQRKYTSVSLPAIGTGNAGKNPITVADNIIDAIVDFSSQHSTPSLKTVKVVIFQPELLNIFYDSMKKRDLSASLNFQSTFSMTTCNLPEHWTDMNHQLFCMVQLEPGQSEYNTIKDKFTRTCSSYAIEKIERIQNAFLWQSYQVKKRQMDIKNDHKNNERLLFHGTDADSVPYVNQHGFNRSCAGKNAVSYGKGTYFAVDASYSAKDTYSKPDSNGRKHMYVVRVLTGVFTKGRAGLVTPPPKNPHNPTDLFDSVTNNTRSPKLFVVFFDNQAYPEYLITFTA
The settings on record: proximity-enhanced assay; for PARP15 pIC50 ± SEM: n = 3; for pIC50: read-out: PARP15 IC50. On the procedure: (§1) We therefore had to improve the assay method and developed a homogeneous proximity enhanced assay for mono-ARTs.[47]
(§2) The proteins used in Tables 1–3 were produced as described earlier. Dockerin constructs to allow enhanced activity assays for mono-ARTs (Table 4) were produced in Escherichia coli with an N-terminal maltose binding protein (MBP) and a C-terminal dockerin domain from Hungateiclostridium thermocellum Cel48s as described recently.[47]
(§3) Inhibition experiments were performed using a homogenous assay measuring NAD+ consumption.[80]−[82] Reactions were carried out in quadruplicate, and IC50 curves were fitted using sigmoidal dose response curve (four variables) in GraphPad Prism version 8.02. […] Assay conditions for PARP2, TNKS2, PARP10, and PARP15 (Tables 1–3) were recently reported.[44] The conditions for the proximity-enhanced mono-ART assays (Table 4) were also reported recently.[47] PARP6 (400 nM) inhibition was measured using the standard buffer (50 mM sodium phosphate pH 7.0) for the enhanced activity assay using 500 nM NAD^+ and 18 h incubation in r.t..

By UniProt entry, the sequences of proteins in these tests, tags left out. Where a name states a change or a piece, a line headed by the entry shows the natural chain unless it says otherwise.
UniProt Q9NR21: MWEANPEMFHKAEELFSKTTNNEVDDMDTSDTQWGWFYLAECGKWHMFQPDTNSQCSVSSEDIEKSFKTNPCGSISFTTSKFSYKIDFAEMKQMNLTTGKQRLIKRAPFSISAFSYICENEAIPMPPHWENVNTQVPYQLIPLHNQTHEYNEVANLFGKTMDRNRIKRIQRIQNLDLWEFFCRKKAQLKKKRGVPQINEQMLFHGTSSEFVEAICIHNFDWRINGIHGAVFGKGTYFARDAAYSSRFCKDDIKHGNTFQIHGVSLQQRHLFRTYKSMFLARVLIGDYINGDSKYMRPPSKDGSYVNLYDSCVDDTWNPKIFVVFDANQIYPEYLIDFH
UniProt Q460N5, whole entry: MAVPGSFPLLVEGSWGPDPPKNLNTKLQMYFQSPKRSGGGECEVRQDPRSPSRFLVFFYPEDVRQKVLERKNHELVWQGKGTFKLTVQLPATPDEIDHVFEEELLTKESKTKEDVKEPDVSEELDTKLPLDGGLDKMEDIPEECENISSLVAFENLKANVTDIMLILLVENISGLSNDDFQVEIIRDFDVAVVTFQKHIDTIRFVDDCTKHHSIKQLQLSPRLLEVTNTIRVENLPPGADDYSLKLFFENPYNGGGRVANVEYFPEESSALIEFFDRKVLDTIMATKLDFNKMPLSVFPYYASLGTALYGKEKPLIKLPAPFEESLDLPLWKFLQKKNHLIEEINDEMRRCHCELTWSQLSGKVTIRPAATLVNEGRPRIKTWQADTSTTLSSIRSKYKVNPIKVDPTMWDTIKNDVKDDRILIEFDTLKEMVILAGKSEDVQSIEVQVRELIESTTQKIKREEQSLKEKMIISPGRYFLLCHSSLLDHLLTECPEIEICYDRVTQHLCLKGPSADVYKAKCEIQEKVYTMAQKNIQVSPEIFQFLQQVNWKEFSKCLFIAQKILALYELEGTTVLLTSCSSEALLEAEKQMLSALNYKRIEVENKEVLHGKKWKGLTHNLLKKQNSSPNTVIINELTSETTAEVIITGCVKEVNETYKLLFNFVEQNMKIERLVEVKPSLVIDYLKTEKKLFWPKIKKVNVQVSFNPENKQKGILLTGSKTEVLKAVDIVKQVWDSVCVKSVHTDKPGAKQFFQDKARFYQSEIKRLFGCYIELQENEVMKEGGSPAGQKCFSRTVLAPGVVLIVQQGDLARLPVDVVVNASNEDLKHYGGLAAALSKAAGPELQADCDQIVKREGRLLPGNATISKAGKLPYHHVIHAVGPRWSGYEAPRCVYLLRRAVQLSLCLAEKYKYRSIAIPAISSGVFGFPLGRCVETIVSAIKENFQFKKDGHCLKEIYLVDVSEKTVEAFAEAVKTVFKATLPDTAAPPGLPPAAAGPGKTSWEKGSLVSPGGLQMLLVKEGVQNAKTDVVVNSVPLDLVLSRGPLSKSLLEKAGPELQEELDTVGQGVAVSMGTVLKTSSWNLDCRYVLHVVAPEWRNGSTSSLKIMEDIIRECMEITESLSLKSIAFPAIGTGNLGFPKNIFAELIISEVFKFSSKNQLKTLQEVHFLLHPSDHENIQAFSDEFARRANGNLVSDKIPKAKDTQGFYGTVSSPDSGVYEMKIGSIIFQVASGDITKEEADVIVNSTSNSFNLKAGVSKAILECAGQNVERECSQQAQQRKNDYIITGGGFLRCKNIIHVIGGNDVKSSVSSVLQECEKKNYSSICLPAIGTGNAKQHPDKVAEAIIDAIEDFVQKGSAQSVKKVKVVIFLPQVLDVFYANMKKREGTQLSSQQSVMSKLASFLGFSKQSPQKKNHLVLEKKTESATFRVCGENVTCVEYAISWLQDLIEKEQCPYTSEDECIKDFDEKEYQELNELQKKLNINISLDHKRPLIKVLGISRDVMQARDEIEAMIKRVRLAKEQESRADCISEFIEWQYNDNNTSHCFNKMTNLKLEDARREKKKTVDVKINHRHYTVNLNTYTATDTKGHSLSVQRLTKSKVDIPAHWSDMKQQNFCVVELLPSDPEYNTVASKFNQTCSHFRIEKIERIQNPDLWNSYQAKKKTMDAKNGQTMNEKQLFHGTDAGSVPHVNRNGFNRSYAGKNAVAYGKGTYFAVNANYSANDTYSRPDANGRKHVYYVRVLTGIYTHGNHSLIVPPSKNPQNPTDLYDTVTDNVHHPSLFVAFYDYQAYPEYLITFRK
UniProt Q7Z3E1: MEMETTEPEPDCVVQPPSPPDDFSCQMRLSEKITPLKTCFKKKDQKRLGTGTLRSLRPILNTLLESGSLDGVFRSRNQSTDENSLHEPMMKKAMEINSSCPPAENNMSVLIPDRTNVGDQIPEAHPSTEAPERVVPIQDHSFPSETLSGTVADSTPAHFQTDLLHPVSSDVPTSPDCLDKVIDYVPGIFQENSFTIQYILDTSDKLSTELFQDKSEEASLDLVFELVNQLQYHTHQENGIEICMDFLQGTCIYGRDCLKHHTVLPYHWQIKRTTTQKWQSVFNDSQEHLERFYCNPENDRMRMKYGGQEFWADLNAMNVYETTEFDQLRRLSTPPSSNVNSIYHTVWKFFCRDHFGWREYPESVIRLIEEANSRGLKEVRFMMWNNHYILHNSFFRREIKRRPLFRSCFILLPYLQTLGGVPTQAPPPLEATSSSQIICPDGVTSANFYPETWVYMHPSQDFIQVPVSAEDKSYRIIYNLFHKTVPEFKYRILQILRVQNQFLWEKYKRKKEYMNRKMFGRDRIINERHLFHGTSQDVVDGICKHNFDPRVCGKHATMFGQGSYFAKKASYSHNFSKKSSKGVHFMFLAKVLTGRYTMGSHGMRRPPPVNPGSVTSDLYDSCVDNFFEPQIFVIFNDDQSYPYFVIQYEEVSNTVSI
UniProt Q9UKK3: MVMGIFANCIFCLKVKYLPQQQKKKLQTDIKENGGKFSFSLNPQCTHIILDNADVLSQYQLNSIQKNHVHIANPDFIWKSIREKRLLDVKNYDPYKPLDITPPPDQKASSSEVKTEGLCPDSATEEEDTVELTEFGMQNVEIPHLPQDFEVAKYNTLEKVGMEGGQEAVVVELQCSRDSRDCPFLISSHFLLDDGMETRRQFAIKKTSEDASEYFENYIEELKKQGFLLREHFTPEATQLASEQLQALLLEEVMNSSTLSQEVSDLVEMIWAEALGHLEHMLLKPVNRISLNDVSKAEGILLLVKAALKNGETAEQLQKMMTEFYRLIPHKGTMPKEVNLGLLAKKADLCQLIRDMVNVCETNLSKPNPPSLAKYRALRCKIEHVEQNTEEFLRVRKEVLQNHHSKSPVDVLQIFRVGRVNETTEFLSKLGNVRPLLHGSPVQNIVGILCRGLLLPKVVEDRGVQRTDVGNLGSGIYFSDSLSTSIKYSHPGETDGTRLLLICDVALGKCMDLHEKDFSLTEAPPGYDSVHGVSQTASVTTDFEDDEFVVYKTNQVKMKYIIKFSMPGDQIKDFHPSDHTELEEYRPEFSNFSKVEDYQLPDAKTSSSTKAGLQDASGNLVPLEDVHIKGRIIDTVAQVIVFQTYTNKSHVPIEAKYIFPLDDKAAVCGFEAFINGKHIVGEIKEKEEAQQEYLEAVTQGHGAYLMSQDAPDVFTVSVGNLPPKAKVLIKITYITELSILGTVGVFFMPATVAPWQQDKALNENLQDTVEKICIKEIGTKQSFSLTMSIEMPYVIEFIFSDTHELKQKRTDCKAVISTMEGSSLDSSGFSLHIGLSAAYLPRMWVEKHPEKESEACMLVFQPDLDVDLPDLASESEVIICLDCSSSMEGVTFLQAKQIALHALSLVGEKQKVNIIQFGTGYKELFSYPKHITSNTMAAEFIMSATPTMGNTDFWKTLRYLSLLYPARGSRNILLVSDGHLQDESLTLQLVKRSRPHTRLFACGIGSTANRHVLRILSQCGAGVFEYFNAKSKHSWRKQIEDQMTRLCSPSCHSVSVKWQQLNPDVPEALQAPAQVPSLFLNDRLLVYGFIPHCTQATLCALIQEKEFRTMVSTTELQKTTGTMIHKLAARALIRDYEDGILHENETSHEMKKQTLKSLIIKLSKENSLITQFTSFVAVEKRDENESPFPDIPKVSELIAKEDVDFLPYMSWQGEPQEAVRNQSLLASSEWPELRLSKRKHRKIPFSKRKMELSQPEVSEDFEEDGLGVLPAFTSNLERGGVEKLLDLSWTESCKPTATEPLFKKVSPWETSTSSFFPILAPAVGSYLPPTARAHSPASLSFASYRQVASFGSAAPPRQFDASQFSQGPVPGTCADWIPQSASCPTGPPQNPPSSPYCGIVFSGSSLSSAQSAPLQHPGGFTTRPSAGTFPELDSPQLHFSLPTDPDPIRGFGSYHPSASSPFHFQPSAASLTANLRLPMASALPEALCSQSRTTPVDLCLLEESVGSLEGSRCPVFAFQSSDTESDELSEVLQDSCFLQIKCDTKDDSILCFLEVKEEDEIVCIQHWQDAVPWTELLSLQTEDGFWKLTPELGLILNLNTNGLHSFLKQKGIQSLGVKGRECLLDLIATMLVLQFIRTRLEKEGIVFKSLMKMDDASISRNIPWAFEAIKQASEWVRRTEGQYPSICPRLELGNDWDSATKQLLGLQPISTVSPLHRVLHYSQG
UniProt P09874, whole entry: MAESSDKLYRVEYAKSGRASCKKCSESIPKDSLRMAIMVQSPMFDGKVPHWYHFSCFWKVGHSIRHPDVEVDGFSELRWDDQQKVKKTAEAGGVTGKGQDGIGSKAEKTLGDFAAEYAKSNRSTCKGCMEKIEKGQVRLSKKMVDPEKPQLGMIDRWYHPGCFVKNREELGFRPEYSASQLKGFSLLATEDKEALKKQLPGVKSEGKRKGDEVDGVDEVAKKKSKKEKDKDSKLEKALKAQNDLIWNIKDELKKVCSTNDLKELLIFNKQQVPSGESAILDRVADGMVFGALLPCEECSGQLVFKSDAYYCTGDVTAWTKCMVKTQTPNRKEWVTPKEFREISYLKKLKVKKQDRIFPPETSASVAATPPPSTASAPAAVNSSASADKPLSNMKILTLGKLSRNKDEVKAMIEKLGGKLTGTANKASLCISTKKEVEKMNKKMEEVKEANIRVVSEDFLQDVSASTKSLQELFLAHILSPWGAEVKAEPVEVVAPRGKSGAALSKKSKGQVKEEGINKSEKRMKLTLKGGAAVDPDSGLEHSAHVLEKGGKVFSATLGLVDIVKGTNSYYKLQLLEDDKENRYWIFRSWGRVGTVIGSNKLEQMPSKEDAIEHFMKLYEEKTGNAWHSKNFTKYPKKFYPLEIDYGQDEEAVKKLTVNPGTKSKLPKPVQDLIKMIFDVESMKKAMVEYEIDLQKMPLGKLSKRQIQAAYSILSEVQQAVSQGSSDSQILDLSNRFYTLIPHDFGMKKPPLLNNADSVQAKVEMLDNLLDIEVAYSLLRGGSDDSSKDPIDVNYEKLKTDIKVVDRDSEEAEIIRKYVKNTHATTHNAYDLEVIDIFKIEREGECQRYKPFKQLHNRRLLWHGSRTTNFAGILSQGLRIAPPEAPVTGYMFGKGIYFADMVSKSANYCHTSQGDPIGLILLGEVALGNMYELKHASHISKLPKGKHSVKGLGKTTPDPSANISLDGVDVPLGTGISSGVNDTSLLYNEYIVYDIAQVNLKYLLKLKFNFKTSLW
UniProt Q9UGN5: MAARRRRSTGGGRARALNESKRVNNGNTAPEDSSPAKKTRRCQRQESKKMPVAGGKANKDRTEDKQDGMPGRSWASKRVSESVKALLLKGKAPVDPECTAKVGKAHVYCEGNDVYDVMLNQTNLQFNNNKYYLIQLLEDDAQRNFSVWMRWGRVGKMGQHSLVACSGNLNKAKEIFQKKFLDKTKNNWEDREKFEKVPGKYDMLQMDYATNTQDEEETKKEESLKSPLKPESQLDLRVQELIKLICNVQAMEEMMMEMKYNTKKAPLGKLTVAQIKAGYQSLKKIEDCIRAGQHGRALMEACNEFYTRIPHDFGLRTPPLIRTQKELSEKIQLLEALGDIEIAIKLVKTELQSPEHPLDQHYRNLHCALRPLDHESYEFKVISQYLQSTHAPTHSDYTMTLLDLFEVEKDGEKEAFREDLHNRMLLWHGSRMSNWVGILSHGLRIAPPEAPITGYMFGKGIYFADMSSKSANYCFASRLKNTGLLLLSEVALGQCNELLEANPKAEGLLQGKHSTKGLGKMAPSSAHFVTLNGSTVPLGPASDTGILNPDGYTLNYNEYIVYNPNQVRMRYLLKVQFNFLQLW

A further assay has as its target PARP11 (Homo sapiens, UniProt Q9NR21). The settings on record: proximity-enhanced assay; for PARP11 pIC50 ± SEM: n = 3; for pIC50: read-out: PARP11 IC50. How it is done:
as §1, §2, §3

Assay [2] deals with PARP14 (Homo sapiens, UniProt Q460N5). The following applies: proximity-enhanced assay; for PARP14 pIC50 ± SEM: n = 3; for pIC50: read-out: PARP14 IC50. How it is done:
as §1, §2, §3

The target in the next assay is PARP7 (Homo sapiens, UniProt Q7Z3E1). The following applies: proximity-enhanced assay; for pIC50: read-out: PARP7 IC50. On the procedure:
as §1, §2, §3

The target in a further assay is T2, PARP12 (Homo sapiens, UniProt Q9H0J9).
T2 construct: dockerin domain of Hungateiclostridium thermocellum Cel48s (C); made in house; host or cells: Escherichia coli
T2 sequence (Q9H0J9 1-701): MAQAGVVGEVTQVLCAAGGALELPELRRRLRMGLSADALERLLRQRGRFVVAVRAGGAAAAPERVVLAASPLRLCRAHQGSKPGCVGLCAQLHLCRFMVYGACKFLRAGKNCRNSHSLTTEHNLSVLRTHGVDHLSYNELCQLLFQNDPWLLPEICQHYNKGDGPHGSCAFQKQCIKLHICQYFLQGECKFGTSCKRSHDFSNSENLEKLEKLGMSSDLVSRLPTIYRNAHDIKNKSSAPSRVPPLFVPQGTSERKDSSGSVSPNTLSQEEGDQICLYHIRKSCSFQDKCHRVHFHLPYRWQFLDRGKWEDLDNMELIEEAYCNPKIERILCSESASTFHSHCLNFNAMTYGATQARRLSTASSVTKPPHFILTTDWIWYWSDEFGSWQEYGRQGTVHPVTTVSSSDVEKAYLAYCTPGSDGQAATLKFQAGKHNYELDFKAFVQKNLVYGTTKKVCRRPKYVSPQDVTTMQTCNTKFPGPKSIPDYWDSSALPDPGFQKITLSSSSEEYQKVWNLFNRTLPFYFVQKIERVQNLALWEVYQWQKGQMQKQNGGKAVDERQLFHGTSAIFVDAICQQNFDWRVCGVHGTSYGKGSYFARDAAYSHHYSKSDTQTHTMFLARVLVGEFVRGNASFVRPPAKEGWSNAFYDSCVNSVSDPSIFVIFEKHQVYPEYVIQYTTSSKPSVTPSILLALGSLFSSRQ
The assay is classed as biochemical. The following applies: proximity-enhanced assay. How it is done:
as §1, §2, §3

The target in assay [3] is T3, PARP10 (Homo sapiens, UniProt Q53GL7).
T3 sequence (Q53GL7 1-1025): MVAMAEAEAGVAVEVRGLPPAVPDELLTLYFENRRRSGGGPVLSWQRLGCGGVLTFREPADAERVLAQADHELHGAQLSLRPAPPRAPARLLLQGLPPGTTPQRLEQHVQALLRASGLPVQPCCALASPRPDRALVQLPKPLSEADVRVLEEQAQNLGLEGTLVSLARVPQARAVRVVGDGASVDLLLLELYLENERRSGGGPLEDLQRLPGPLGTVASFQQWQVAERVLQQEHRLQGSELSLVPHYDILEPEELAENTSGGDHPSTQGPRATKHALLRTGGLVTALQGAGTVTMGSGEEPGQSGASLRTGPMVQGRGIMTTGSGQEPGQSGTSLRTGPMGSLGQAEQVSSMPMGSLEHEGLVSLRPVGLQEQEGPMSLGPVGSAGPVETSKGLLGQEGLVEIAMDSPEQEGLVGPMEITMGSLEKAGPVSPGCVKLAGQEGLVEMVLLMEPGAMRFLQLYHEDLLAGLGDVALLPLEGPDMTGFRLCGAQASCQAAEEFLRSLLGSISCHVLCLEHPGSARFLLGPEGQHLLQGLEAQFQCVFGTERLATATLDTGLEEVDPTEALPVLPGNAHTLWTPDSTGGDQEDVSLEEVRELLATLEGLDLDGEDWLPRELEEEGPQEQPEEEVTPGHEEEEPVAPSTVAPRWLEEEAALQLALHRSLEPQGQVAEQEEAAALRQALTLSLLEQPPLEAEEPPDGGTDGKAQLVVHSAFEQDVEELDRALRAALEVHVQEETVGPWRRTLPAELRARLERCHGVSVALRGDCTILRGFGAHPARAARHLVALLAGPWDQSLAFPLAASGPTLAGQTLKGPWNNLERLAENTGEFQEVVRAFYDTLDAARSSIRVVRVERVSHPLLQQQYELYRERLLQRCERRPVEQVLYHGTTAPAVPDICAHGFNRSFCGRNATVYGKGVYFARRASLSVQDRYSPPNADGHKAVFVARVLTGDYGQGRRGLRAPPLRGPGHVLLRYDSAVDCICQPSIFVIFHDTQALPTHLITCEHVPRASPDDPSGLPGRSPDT
Description: biochemical. The assay is classed as biochemical. On the set-up: made in house. The following applies: standard assay (Tables 1-3); for pIC50: * value limited by the protein concentration used, > less than 50% inhibition, ≫ no inhibition at the concentration, read-out: PARP10 IC50.

The target of assay [4] is T1, PARP15. Description: biochemical. The following applies: standard assay (Tables 1-3); for pIC50: * value limited by the protein concentration used, > less than 50% inhibition, ≫ no inhibition at the concentration, read-out: PARP15 IC50. The assay is classed as biochemical. On the set-up: made in house.
Another assay addresses PARP3 (Homo sapiens, UniProt Q9Y6F1). The following applies: read-out: PARP3 IC50. On the procedure: as §3
The target of a further assay is PARP4 (Homo sapiens, UniProt Q9UKK3). The settings on record: read-out: PARP4 IC50. How it is done: as §3
The next assay deals with PARP1 (Homo sapiens, UniProt P09874). The following applies: read-out: PARP1 IC50. On the procedure: as §3
The subject of assay [5] is PARP14. The settings on record: read-out: PARP14 IC50; Figure 1 ref 39; cited from earlier work.
The next assay addresses T4, PARP2 (Homo sapiens, UniProt Q9UGN5).
T4 construct: made in house
The assay is classed as biochemical. The settings on record: > = less than 50% inhibition at highest concentration; ≫ = no inhibition.

In the next assay the target is T5, TNKS2 (Homo sapiens, UniProt Q9H2K2).
T5 sequence (Q9H2K2 1-1166): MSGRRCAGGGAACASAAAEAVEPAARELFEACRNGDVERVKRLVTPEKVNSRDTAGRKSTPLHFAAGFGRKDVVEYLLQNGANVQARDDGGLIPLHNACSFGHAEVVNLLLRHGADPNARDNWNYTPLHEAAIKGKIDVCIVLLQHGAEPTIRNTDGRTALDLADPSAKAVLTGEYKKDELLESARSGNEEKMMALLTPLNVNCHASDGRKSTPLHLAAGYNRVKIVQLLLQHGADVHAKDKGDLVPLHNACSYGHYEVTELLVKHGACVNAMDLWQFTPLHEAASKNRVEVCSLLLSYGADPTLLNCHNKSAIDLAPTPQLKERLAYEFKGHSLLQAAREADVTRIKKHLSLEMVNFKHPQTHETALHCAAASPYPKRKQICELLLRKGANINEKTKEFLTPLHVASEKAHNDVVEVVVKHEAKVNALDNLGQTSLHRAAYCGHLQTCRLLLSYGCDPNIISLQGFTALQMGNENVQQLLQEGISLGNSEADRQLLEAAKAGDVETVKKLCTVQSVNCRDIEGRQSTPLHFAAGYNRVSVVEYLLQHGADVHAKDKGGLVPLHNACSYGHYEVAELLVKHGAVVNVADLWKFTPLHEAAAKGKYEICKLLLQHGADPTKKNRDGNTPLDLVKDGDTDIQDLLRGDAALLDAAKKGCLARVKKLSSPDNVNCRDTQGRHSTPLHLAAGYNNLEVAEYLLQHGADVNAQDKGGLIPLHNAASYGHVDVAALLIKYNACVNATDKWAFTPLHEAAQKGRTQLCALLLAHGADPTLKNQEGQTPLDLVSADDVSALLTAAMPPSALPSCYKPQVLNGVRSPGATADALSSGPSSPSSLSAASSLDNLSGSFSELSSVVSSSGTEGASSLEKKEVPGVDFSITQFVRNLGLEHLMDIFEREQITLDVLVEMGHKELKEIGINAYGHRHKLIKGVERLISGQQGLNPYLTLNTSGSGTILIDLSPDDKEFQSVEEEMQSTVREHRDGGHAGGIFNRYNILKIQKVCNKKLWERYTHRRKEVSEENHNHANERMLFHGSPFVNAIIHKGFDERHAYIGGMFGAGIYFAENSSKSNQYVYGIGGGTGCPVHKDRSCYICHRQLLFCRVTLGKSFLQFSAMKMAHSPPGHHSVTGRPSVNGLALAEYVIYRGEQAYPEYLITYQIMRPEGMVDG
The settings on record: read-out: TNKS2 IC50; > = less than 50% inhibition at highest concentration. On the procedure: as §2, §3

For assay [6], the target named is T3, PARP10. The following applies: proximity-enhanced assay. On the procedure:
as §1, §2, §3

For orientation: pIC50 means the negative decadic logarithm of the IC50, by convention in mol/L.

pIC50: −log10 of the molar value. Read-outs that look alike come from different tables or passages of the source.

With `COc1ccc(OC)c2c1sc1nnc(N)n12` [Compound 27, 5,8-Dimethoxy[1,2,4]triazolo[3,4-b][1,3]benzothiazol-3-amine], the “PARP15 pIC50 ± SEM” value turned out to be 7.25 ± 0.01 on PARP15 [1] and 6.91 ± 0.03 at PARP15 [4]. The pIC50 on PARP15 [1] was 7.25; on PARP11, 6.62; at PARP14 [2], 6.52; at PARP7, 7.08; at PARP12 it was 6.80; on PARP10 [3], 6.92. The pIC50 at PARP15 [4] was 6.92; at PARP3, 4.30; on PARP4, 4.96; on PARP1 it was 4.82. Also, the “PARP11 pIC50 ± SEM” value on PARP11 is 6.61 ± 0.07. In addition, the “PARP14 pIC50 ± SEM” value at PARP14 [2] is listed as 6.52 ± 0.03. For the same molecule, the “PARP7 pIC50 ± SEM” value on PARP7 (n = 3) was 7.08 ± 0.06. In addition, the “PARP12 pIC50 ± SEM” value at PARP12 (n = 3) was found to be 6.80 ± 0.002. Besides, the “PARP10 pIC50 ± SEM” value on PARP10 [3] is 6.93 ± 0.06.

For the molecule `O=c1[nH]c(CS[C@H]2CC[C@H](O)CC2)nc2cc(OCC3CC3)cc(F)c12` [RBN-012759], the negative-log IC50 (pIC50) with PARP14 [5] was 8.52.

In the case of `COc1ccc(OC)c2c1sc1nnc(NC(=O)c3ccc(Cl)cc3)n12` [Compound 29], the negative logarithm of the IC50 (pIC50) on PARP2 is 4.36; on TNKS2, 4.70.

In the case of `Cc1ccc2c(c1)sc1nnc(N)n12` [Compound 21, 7-Methyl[1,2,4]triazolo[3,4-b][1,3]benzothiazol-3-amine], the “PARP15 pIC50 ± SEM” value is listed as 6.59 ± 0.11 at PARP15 [1] and 6.53 ± 0.14 on PARP15 [4]. Moreover, the negative-log IC50 (pIC50) at PARP15 [1] was 6.59; on PARP11 it was 6.33; at PARP14 [2], 6.19; at PARP10 [6] (read-out: PARP10 IC50), 7.60; on PARP7 (≫ no inhibition at the concentration) it was 5.42; on PARP12 (> less than 50% inhibition) it was 5.36. For the same molecule, the negative logarithm of the IC50 (pIC50) on PARP10 [3] is 6.74; on PARP15 [4], 6.52; at PARP3, 4.47; at PARP4, 5.00. Moreover, the “PARP11 pIC50 ± SEM” value on PARP11 came out at 6.33 ± 0.13. In addition, the “PARP14 pIC50 ± SEM” value at PARP14 [2] amounted to 6.19 ± 0.03. Besides, the “PARP10 pIC50 ± SEM” value at PARP10 [6] (n = 3) was determined as 7.60 ± 0.03; at PARP10 [3], 6.73 ± 0.12.

(Values after publication PMC9884089 (Journal of Medicinal Chemistry, 2023).)
